# From patent US7485625B2, “Inhibitors of hepatitis C virus NS3/NS4a serine protease” (Schering Corporation, priority 2003, dated 2009)
# Amino acid sequences for entries named in this document (tags omitted). Residues count along the entry.
# UniProt P27958, 1027-1657: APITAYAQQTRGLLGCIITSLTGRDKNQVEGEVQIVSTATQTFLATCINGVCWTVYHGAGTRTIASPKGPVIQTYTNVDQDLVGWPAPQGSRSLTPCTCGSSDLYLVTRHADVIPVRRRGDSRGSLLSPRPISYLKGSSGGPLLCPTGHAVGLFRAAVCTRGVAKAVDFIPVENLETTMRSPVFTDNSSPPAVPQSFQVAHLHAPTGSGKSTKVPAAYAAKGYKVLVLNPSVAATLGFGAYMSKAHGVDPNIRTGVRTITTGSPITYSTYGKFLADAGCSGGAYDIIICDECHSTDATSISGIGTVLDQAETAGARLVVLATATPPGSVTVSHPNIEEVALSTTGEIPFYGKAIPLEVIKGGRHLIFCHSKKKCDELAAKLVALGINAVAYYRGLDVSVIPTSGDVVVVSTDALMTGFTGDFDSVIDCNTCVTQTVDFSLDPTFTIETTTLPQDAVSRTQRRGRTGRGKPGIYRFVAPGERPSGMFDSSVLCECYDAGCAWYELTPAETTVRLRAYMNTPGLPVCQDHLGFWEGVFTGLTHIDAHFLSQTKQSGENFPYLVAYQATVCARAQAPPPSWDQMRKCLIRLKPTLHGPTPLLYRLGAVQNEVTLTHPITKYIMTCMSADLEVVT
# UniProt P27958, 1658-1711: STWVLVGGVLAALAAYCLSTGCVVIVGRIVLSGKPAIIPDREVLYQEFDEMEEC
# Biological target: Recombinant heterodimeric HCV NS3/NS4A protease (strain 1a) (Hepatitis C virus genotype 1a, UniProt P27958)
# Experiment: Spectrophotometric assay for HCV NS3/NS4a serine protease inhibitory activity (chromogenic ester substrates)
# Assay type: biochemical
# Conditions: Table 2; range classes
row,Structure (SMILES),Ki [µM]
1,C=CCNC(=O)C(=O)C(CCCC)NC(=O)[C@@H]1[C@@H]2[C@H](CN1C(=O)[C@@H](NC(=O)[C@@H](NC(=O)c1ccccn1)C1CCCCC1)C(C)(C)C)C2(C)C (some centres unmarked) [Entry 37],≤ 0.1
2,C=CCNC(=O)C(=O)[C@H](CCC)NC(=O)[C@@H]1[C@@H]2[C@H](CN1C(=O)[C@@H](NC(=O)[C@@H](NC(=O)c1ccccn1)C1CCCCC1)C(C)(C)C)C2(C)C [Entry 36],≤ 0.1
3,C=CCNC(=O)C(=O)C(CC1CC1)NC(=O)[C@@H]1[C@@H]2[C@H](CN1C(=O)[C@@H](NC(=O)[C@@H](NC(=O)c1cnccn1)c1ccccc1)C(C)(C)C)C2(C)C (some centres unmarked) [Entry 12],≤ 0.1
4,CC1([C@H](NC(=O)[C@@H](NC(=O)c2cnccn2)C2CCCCC2)C(=O)N2C[C@H]3[C@@H]([C@H]2C(=O)NC(CC2CC2)C(=O)C(N)=O)C3(C)C)CCCCC1 (some centres unmarked) [Entry 9],≤ 0.1
5,C=CCNC(=O)C(=O)C(CC1CCC1)NC(=O)[C@@H]1[C@@H]2[C@H](CN1C(=O)[C@@H](NC(=O)[C@@H](NC(=O)c1cnccn1)C1CCCCC1)C1CCCCC1)C2(C)C (some centres unmarked) [Entry 3],≤ 0.1
6,C=CCNC(=O)C(=O)C(CCCC)NC(=O)[C@@H]1[C@@H]2[C@H](CN1C(=O)[C@@H](NC(=O)[C@@H](NC(=O)c1cnccn1)C1CCCCC1)C(C)(C)C)C2(C)C (some centres unmarked) [Entry 30],≤ 0.1
7,C=CCNC(=O)C(=O)C(CCCC)NC(=O)[C@@H]1[C@@H]2[C@H](CN1C(=O)[C@@H](NC(=O)[C@@H](NC(=O)c1cnccn1)c1ccccc1)C(C)(C)C)C2(C)C (some centres unmarked) [Entry 14],≤ 0.1
8,C=CCNC(=O)C(=O)C(CCC)NC(=O)[C@@H]1[C@@H]2[C@H](CN1C(=O)[C@@H](NC(=O)[C@@H](NC(=O)c1cnccn1)C(C)(C)C)C(C)(C)C)C2(C)C (some centres unmarked) [Entry 20],≤ 0.1
9,C#CCCC(NC(=O)[C@@H]1[C@@H]2[C@H](CN1C(=O)[C@@H](NC(=O)[C@@H](NC(=O)c1cnccn1)C1(C)CCCCC1)C(C)(C)C)C2(C)C)C(=O)C(=O)NCC=C (some centres unmarked) [Entry 45],≤ 0.1
10,C#CCCC(NC(=O)[C@@H]1[C@@H]2[C@H](CN1C(=O)[C@@H](NC(=O)[C@@H](NC(=O)c1cnccn1)C1CCCCC1)C(C)(C)C)C2(C)C)C(=O)C(=O)NCC=C (some centres unmarked) [Entry 29],≤ 0.1
11,CCCC(NC(=O)[C@@H]1[C@@H]2[C@H](CN1C(=O)[C@@H](NC(=O)[C@@H](NC(=O)c1cnccn1)C1(C)CCCCC1)C1(C)CCCCC1)C2(C)C)C(=O)C(=O)NC1CC1 (some centres unmarked) [Entry 51],≤ 0.1
12,C=CCNC(=O)C(=O)C(CCCC)NC(=O)[C@@H]1[C@@H]2[C@H](CN1C(=O)[C@@H](NC(=O)[C@@H](NC(=O)c1cnccn1)C1(C)CCCCC1)C(C)(C)C)C2(C)C (some centres unmarked) [Entry 46],≤ 0.1
13,C=CCNC(=O)C(=O)C(CC1CC1)NC(=O)[C@@H]1[C@@H]2[C@H](CN1C(=O)[C@@H](NC(=O)[C@@H](NC(=O)c1cnccn1)C1CCCCC1)C(C)(C)C)C2(C)C (some centres unmarked) [Entry 34],≤ 0.1
14,C=CCNC(=O)C(=O)C(CC1CC1)NC(=O)[C@@H]1[C@@H]2[C@H](CN1C(=O)[C@@H](NC(=O)[C@@H](NC(=O)c1cnccn1)C1CCCCC1)C1Cc3ccccc3C1)C2(C)C (some centres unmarked) [Entry 40],≤ 0.1
15,C=CCNC(=O)C(=O)C(CC1CCC1)NC(=O)[C@@H]1[C@@H]2[C@H](CN1C(=O)[C@@H](NC(=O)[C@@H](NC(=O)c1cnccn1)C1CCCCC1)C(C)(C)C)C2(C)C (some centres unmarked) [Entry 31],≤ 0.1
16,C=CCNC(=O)C(=O)C(CCCC)NC(=O)[C@@H]1[C@@H]2[C@H](CN1C(=O)[C@@H](NC(=O)[C@@H](NC(=O)c1cnccn1)C1CCCCC1)C1(C)CCCCC1)C2(C)C (some centres unmarked) [Entry 6],≤ 0.1
17,CCC[C@H](NC(=O)[C@@H]1[C@@H]2[C@H](CN1C(=O)[C@@H](NC(=O)[C@@H](NC(=O)c1cnccn1)C1CCCCC1)C(C)(C)C)C2(C)C)C(=O)C(=O)NC1CC1 [Entry 28],≤ 0.1
18,C=CCNC(=O)C(=O)C(CCCC)NC(=O)[C@@H]1[C@@H]2[C@H](CN1C(=O)[C@@H](NC(=O)[C@@H](NC(=O)c1cnccn1)C1CCCCC1)C1CCCCC1)C2(C)C (some centres unmarked) [Entry 27],≤ 0.1
19,CC1([C@H](NC(=O)[C@@H](NC(=O)c2cnccn2)C2CCCCC2)C(=O)N2C[C@H]3[C@@H]([C@H]2C(=O)NC(CC2CCC2)C(=O)C(N)=O)C3(C)C)CCCCC1 (some centres unmarked) [Entry 10],≤ 0.1
20,CCC[C@H](NC(=O)[C@@H]1[C@@H]2[C@H](CN1C(=O)[C@@H](NC(=O)[C@@H](NC(=O)C(C)(C)C)C1CCCCC1)C(C)(C)C)C2(C)C)C(=O)C(=O)NC1CC1 [Entry 39],≤ 0.1
21,C=CCNC(=O)C(=O)C(CCC)NC(=O)[C@@H]1[C@@H]2[C@H](CN1C(=O)[C@@H](NC(=O)[C@@H](NC(=O)c1cnccn1)C1CCCCC1)C1(C)CCCCC1)C2(C)C (some centres unmarked) [Entry 5],≤ 0.1
22,C=CCNC(=O)C(=O)C(CC1CCC1)NC(=O)[C@@H]1[C@@H]2[C@H](CN1C(=O)[C@@H](NC(=O)[C@@H](NC(=O)c1cnccn1)C(C)(C)C)C(C)(C)C)C2(C)C (some centres unmarked) [Entry 22],0.1 to 1
23,C=CCNC(=O)C(=O)C(CCC)NC(=O)[C@@H]1[C@@H]2[C@H](CN1C(=O)[C@@H](NC(=O)[C@@H](NC(=O)c1cnccn1)C1CCCCC1)C(C)(C)C)C2(C)C (some centres unmarked) [Entry 32],≤ 0.1
24,CCC[C@H](NC(=O)[C@@H]1[C@@H]2[C@H](CN1C(=O)[C@@H](NC(=O)[C@@H](NC(=O)c1ccccn1)C1CCCCC1)C(C)(C)C)C2(C)C)C(=O)C(=O)NC1CC1 [Entry 35],≤ 0.1
25,C#CCCC(NC(=O)[C@@H]1[C@@H]2[C@H](CN1C(=O)[C@@H](NC(=O)[C@@H](NC(=O)c1cnccn1)C1CCCCC1)C1(C)CCCCC1)C2(C)C)C(=O)C(=O)NCC=C (some centres unmarked) [Entry 7],≤ 0.1
26,C=CCNC(=O)C(=O)C(CCC)NC(=O)[C@@H]1[C@@H]2[C@H](CN1C(=O)[C@@H](NC(=O)[C@@H](NC(=O)c1cnccn1)C1(C)CCCCC1)C(C)(C)C)C2(C)C (some centres unmarked) [Entry 47],≤ 0.1
27,C=CCNC(=O)C(=O)C(CC1CC1)NC(=O)[C@@H]1[C@@H]2[C@H](CN1C(=O)[C@@H](NC(=O)[C@@H](NC(=O)c1cnccn1)C1CCCCC1)C1CCCCC1)C2(C)C (some centres unmarked) [Entry 4],≤ 0.1
28,CCCC(NC(=O)[C@@H]1[C@@H]2[C@H](CN1C(=O)[C@@H](NC(=O)[C@@H](NC(=O)c1cnccn1)C1CCCCC1)C1(C)CCCCC1)C2(C)C)C(=O)C(=O)NC1CC1 (some centres unmarked) [Entry 19],≤ 0.1
29,C=CCNC(=O)C(=O)C(CCC)NC(=O)[C@@H]1[C@@H]2[C@H](CN1C(=O)[C@@H](NC(=O)[C@@H](NC(=O)c1cnccn1)C1(C)CCCCC1)C1(C)CCCCC1)C2(C)C (some centres unmarked) [Entry 49],≤ 0.1

# Same assay, conditions: Table 3
row,Structure (SMILES),Ki [µM]
1,C=CCNC(=O)C(=O)C(CCC)NC(=O)[C@@H]1[C@@H]2[C@H](CN1C(=O)[C@@H](NC(=O)[C@@H](NC(=O)c1cnccn1)C1CCCCC1)C1(C)CCCCC1)C2(C)C (some centres unmarked) [Entry 8],0.009
2,C#CCCC(NC(=O)[C@@H]1[C@@H]2[C@H](CN1C(=O)[C@@H](NC(=O)[C@@H](NC(=O)c1cnccn1)C1(C)CCCCC1)C1(C)CCCCC1)C2(C)C)C(=O)C(=O)NCC=C (some centres unmarked) [Entry 7],0.007
3,C=CCNC(=O)C(=O)C(CCCC)NC(=O)[C@@H]1[C@@H]2[C@H](CN1C(=O)[C@@H](NC(=O)[C@@H](NC(=O)c1cnccn1)C1(C)CCCCC1)C(C)(C)C)C2(C)C (some centres unmarked) [Entry 17],0.017
4,C#CCCC(NC(=O)[C@@H]1[C@@H]2[C@H](CN1C(=O)[C@@H](NC(=O)[C@@H](NC(=O)c1cnccn1)C1CCCCC1)C(C)(C)C)C2(C)C)C(=O)C(=O)NCC=C (some centres unmarked) [Entry 5],0.006
5,CCC[C@H](NC(=O)[C@@H]1[C@@H]2[C@H](CN1C(=O)[C@@H](NC(=O)[C@@H](NC(=O)c1cnccn1)C1(C)CCCCC1)C(C)(C)C)C2(C)C)C(=O)C(=O)NC1CC1 [Entry 6],0.007
6,C=CCNC(=O)C(=O)C(CC1CC1)NC(=O)[C@@H]1[C@@H]2[C@H](CN1C(=O)[C@@H](NC(=O)[C@@H](NC(=O)c1cnccn1)C1CCCCC1)C(C)(C)C)C2(C)C (some centres unmarked) [Entry 22],0.022
7,C=CCNC(=O)C(=O)C(CCC)NC(=O)[C@@H]1[C@@H]2[C@H](CN1C(=O)[C@@H](NC(=O)[C@@H](NC(=O)c1cnccn1)C1(C)CCCCC1)C1(C)CCCCC1)C2(C)C (some centres unmarked) [Entry 24],0.023
8,C#CCCC(NC(=O)[C@@H]1[C@@H]2[C@H](CN1C(=O)[C@@H](NC(=O)[C@@H](NC(=O)c1cnccn1)C1(C)CCCCC1)C(C)(C)C)C2(C)C)C(=O)C(=O)NCC=C (some centres unmarked) [Entry 3],0.004
9,C=CCNC(=O)C(=O)C(CCC)NC(=O)[C@@H]1[C@@H]2[C@H](CN1C(=O)[C@@H](NC(=O)[C@@H](NC(=O)c1cnccn1)C1CCCCC1)C(C)(C)C)C2(C)C (some centres unmarked) [Entry 14],0.014
10,C=CCNC(=O)C(=O)C(CCC(F)(F)F)NC(=O)[C@@H]1[C@@H]2[C@H](CN1C(=O)[C@@H](NC(=O)[C@@H](NC(=O)c1cnccn1)C1CCCCC1)C(C)(C)C)C2(C)C (some centres unmarked) [Entry 9],0.012
11,C=CCNC(=O)C(=O)C(CCCC)NC(=O)[C@@H]1[C@@H]2[C@H](CN1C(=O)[C@@H](NC(=O)[C@@H](NC(=O)c1cnccn1)C1CCCCC1)C1CCCCC1)C2(C)C (some centres unmarked) [Entry 15],0.016
12,CCC[C@H](NC(=O)[C@@H]1[C@@H]2[C@H](CN1C(=O)[C@@H](NC(=O)[C@@H](NC(=O)c1cnccn1)C1CCCCC1)C(C)(C)C)C2(C)C)C(=O)C(=O)NC1CC1 [Entry 11],0.013
13,CC1([C@H](NC(=O)[C@@H](NC(=O)c2cnccn2)C2CCCCC2)C(=O)N2C[C@H]3[C@@H]([C@H]2C(=O)NC(CC2CC2)C(=O)C(N)=O)C3(C)C)CCCCC1 (some centres unmarked) [Entry 2],0.004
14,C=CCNC(=O)C(=O)C(CCCC)NC(=O)[C@@H]1[C@@H]2[C@H](CN1C(=O)[C@@H](NC(=O)[C@@H](NC(=O)c1cnccn1)C1(C)CCCCC1)C1(C)CCCCC1)C2(C)C (some centres unmarked) [Entry 23],0.022
15,C=CCNC(=O)C(=O)C(CCC)NC(=O)[C@@H]1[C@@H]2[C@H](CN1C(=O)[C@@H](NC(=O)[C@@H](NC(=O)c1cnccn1)C1(C)CCCCC1)C(C)(C)C)C2(C)C (some centres unmarked) [Entry 10],0.012
16,C=CCNC(=O)C(=O)C(CC1CCC1)NC(=O)[C@@H]1[C@@H]2[C@H](CN1C(=O)[C@@H](NC(=O)[C@@H](NC(=O)c1cnccn1)C1CCCCC1)C1(C)CCCCC1)C2(C)C (some centres unmarked) [Entry 19],0.019
17,C=CCNC(=O)C(=O)C(CCC)NC(=O)[C@@H]1[C@@H]2[C@H](CN1C(=O)[C@@H](NC(=O)[C@@H](NC(=O)c1cnccn1)C1CCCCC1)C1Cc3ccccc3C1)C2(C)C (some centres unmarked) [Entry 13],0.013

# Same assay, conditions: Table I; NS3/NS4a serine protease inhibitory activity
row,Structure (SMILES),Ki [µM]
1,CCC[C@H](NC(=O)[C@@H]1[C@@H]2[C@H](CN1C(=O)[C@@H](NC(=O)[C@@H](NC(=O)c1cnccn1)C1CCCCC1)C(C)(C)C)C2(C)C)C(=O)C(=O)NC1CC1 [Entry 1],0.01
